We go through one compound from patent US20260217706A1, “HETEROCYCLIC COMPOUNDS, PREPARATION METHOD THEREFOR AND USE THEREOF” (GUANGZHOU YUFAN NANTU BIOTECHNOLOGIES CO., LTD, priority 2023, published 2026).

The test deals with anti-CD3 activated human PBMCs. Briefly: Effect of compounds on the level of IL-2 secretion by anti-CD3 activated human PBMCs (IL-2 ELISA). In kind it is cell-based. The protocol:
2. Inoculate the resuspended cells into a 96-well cell culture plate at 200 ul/well of cell suspension, and incubate in a 37° C. cell incubator for 1 h;
3. Adjust the compound concentration with DMSO, starting at a final concentration of 3 μM, and perform a 3-fold dilution sequentially for 10 concentration gradients, with an additional DMSO control well set up; and
4. Adjust the CD3 antibody to an appropriate concentration to achieve a final concentration of 2 μg/mL, mix thoroughly, and incubate in a 37° C. cell incubator for 48h.
5. After 48 h, centrifuge at 1500 rpm for 5 min to collect the supernatant of the culture medium for the human IL-2 ELISA test.
The OD values obtained from the ELISA test are converted into the fold change (FC) in IL-2 concentration. […] The EC50 is calculated using GraphPad Prism. When the fold change=5, the corresponding compound concentration is CFC=5 (in nM).

SMILES strings stand for the structures.

`C[C@H]1CCCN(Cc2cc3c(C(F)(F)F)cn(-c4cccc([C@]5(c6nncn6C)C[C@@H](C)C5)c4)c(=O)c3[nH]2)C1` [Compound T058, 6-(3-((1s,3R)-3-methyl-1-(4-methyl-4H-1,2,4-triazol-3-yl)cyclobutyl)phenyl)-2-(((S)-3-methylpiperidin-1-yl)methyl)-4-(trifluoromethyl)-1,6-dihydro-7H-pyrrolo[2,3-c]pyridin-7-one]: the “IL-2 CFC=5/nM” value is on record as below 500 nM.
